The values below come from PMC11628845 (Acta Pharmaceutica Sinica. B, 2024).

Like-named read-outs stand apart in the source and are kept apart here.

Assay [1] deals with wild-type HBV (genotype C). Briefly: microbe, parasite or virus in culture. The format is cell-based. To be noted: Hepatitis B virus.
For assay [2], the system named is wild type HBV (pHBV 1.3). The assay can be described thus: microbe, parasite or virus in culture. The format is cell-based. As to conditions: Hepatitis B virus, read-out: HBV DNA IC50.

With `C=C1[C@H](CO)[C@@H](O)C[C@@H]1n1cnc2c(=O)[nH]c(N)nc21` [ETV, entecavir, reference compound], the IC50 – broadly, the concentration needed to halve the response being measured – in assay [1] (Huh-7, read-out: HBV DNA IC50) was found to be 1.6 nM; in assay [1] (Huh-7, read-out: HBV DNA IC50, Wide type (genotype C)), 4730 nM.
Consider `COc1ccc(Cc2[nH]/c(=N/C(=O)C34CC5CC(CC(C5)C3)C4)n(C)c2Cc2ccc(OC)c(OC)c2)cc1` [11a, (Z)-N-(5-(3,4-Dimethoxybenzyl)-4-(4-methoxybenzyl)-1-methyl-1,3-dihydro-2H-imidazole-2-ylidene)adamantane-1-carboxamide], for which the IC50 in assay [2] was 138 nM; in assay [1] (Huh-7, read-out: HBV DNA IC50), 752 nM.
